The values below come from US8772330B2, “Inhibitor(s) of transporters or uptake of monoaminergic neurotransmitters” (State of Oregon acting by and through the State Board of …, priority 2009, dated 2014).

Protein sequences, listed by entry. Tags and fused reporters are not part of them.
UniProt Q01959, whole entry: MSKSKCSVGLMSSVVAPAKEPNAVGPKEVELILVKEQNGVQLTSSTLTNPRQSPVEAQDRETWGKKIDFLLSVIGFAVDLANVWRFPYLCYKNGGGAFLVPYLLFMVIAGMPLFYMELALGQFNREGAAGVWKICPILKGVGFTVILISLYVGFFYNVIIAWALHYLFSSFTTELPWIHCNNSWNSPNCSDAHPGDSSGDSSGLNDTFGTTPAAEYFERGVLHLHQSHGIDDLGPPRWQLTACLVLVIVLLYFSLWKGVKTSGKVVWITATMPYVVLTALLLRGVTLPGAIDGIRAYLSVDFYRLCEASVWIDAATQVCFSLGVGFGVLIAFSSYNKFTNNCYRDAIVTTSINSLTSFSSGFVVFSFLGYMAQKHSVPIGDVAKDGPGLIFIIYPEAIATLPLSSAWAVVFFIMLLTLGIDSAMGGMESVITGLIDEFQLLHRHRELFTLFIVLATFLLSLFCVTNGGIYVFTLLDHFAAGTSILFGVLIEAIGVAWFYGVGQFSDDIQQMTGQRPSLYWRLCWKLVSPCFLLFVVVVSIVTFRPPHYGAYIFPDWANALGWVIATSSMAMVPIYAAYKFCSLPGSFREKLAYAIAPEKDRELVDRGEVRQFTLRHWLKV

Structures can show the parent of a compound that is named as a salt. Where two headings read alike, the source gives them in different places.

The target in test [1] is T1, dopamine (DA) transporter (Homo sapiens, UniProt Q01959). Kind of test: biochemical.
The target of test [2] is T1, dopamine (DA) transporter. Particulars: read-out: Dopamine (DA) Ki; Table 4.
The mark [3] stands for this setting: IC50, Dopamine (DA) transporter, Table 1, racemic mixtures, blind tested.
Setting [4] is: Ki, Dopamine (DA) transporter, Table 1, ± S.E.M.

Broadly, the Ki is the dissociation constant of the complex between target and ligand, obtained from inhibition or displacement. The IC50 is the midpoint of a concentration-inhibition curve. In the case of `CNCC1CC1(Oc1cccc2ccccc12)c1cccs1` (racemic) [DWJW0003, (Z)-N-Methyl-[2-(naphthalen-1-yloxy)-2-(thiophen-2-yl)cyclopropyl]methanamine Hydrochloride], the Ki in test [1] (Affinity (Ki), Dopamine (DA) transporter, Table 2, radioligand binding, NovaScreen, ± S.E.M.) came to 283 nM; in test [1] (Dopamine (DA) Ki, Table 4), 275 nM; in test [1] (setting [4]), 283 ± 5.3 nM. Moreover, the 50% inhibitory concentration (IC50) came out at 338 nM in test [1] (Dopamine (DA) IC50, Table 4) and 71.7 nM in test [1] (setting [3]).
Consider `CNC[C@@H]1C[C@]1(Oc1cccc2ccccc12)c1cccs1` (racemic) [DWJW0002, (E)-N-Methyl-[2-(naphthalen-1-yloxy)-2-(thiophen-2-yl)cyclopropyl)methanamine Hydrochloride], for which the IC50 in test [1] (Dopamine (DA) IC50, Table 4) amounted to 507 nM; in test [1] (setting [3]), 147 nM. Further, the Ki in test [1] (Dopamine (DA) Ki, Table 4) was determined as 416 nM; in test [1] (setting [4]) it was 586 ± 120 nM.
Take `CNC[C@H]1C[C@]1(Oc1cccc2ccccc12)c1cccs1` [(−)−32]: half-maximal inhibition in test [1] (Dopamine (DA) IC50, Table 4) (IC50) required 2070 nM. In test [1] (Dopamine (DA) Ki, Table 4), this molecule displayed a Ki of 1620 nM.
The molecule `CNC[C@H]1C[C@@]1(Oc1cccc2ccccc12)c1cccs1` [(−)−30] came in with a half-maximal inhibitory concentration (IC50) in test [1] (Dopamine (DA) IC50, Table 4) of 963 nM. The Ki in test [2] amounted to 790 nM.
Turning to `CNC[C@@H]1C[C@]1(Oc1cccc2ccccc12)c1cccs1` [(+)−30], in test [1] (Dopamine (DA) IC50, Table 4), the IC50 came to 1120 nM. For the same molecule, in test [2], the Ki stood at 913 nM.
